Biological target: eukaryotic topoisomerase IIα (Homo sapiens, UniProt P11388)
Assay: Gel-based Topo-IIα inhibition mechanism assay
Format: biochemical
Settings: 500 μM inhibitor, 4 units enzyme

Sequences of proteins named here, by UniProt entry; tags and fusion partners are left off. A change or cut given only in a name is not applied to a line headed by its entry.
UniProt P11388: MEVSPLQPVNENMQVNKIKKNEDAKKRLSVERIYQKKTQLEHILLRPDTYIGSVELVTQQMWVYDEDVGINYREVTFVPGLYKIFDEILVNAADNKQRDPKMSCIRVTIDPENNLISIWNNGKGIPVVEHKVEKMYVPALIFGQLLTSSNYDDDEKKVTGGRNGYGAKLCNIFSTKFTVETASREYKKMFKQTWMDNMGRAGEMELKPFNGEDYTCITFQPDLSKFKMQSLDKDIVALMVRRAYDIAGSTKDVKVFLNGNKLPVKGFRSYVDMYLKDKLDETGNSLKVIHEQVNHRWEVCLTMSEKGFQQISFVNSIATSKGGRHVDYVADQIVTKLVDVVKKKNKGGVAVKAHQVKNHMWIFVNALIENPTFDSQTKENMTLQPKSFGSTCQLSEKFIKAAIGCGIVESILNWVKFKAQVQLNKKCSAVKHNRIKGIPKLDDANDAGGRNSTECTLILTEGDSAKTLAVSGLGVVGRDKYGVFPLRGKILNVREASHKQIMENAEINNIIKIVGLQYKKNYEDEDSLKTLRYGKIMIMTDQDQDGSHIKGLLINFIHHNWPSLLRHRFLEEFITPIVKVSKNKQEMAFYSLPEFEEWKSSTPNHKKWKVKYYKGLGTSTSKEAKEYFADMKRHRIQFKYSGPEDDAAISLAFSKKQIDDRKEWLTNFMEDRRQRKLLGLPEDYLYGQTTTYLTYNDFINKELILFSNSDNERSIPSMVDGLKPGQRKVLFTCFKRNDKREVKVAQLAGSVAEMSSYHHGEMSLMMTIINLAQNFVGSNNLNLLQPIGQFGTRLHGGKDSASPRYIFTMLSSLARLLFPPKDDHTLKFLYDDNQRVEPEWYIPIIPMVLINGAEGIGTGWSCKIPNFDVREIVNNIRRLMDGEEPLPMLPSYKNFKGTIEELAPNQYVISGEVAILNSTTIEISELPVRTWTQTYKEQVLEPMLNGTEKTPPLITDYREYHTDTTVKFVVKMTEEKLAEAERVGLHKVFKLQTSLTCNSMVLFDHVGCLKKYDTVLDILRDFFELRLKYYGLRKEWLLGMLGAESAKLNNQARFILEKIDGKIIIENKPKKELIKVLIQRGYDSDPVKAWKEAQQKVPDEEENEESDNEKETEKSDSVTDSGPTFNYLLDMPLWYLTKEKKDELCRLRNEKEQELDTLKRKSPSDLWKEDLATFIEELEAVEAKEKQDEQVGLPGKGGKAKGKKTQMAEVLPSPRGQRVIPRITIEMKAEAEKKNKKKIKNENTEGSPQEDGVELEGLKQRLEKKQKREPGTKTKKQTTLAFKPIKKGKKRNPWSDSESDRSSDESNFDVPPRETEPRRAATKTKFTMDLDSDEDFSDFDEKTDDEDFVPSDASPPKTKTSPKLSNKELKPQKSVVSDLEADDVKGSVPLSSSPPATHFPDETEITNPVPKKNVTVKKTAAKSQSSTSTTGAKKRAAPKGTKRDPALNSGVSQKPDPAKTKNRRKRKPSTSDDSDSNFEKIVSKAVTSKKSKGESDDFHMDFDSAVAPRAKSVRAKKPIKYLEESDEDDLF

Topo-IIα inhibition mechanism (formation of linear DNA): produce discrete bands of linear DNA
SMILES: COc1cc([C@@H]2c3cc4c(cc3[C@@H](O[C@@H]3O[C@@H]5CO[C@@H](C)O[C@H]5[C@H](O)[C@H]3O)[C@H]3COC(=O)[C@H]23)OCO4)cc(OC)c1O [etoposide]

— article PMC4151564 (Journal of medicinal chemistry, 2011)
